{"source": "patent US10034922B2", "about": "“Peptide having angiogenesis inhibitory activity and composition containing same” (GemVax & KAEL Co., Ltd., priority 2013, dated 2018)", "key": {"HIF-1α": {"tested_on": "HIF-1α", "assay": "HIF-1α production in hypoxia-induced cancer cells (immunoblotting)", "assay_type": "cell-based, human", "details": "PEP1 20 μM, vs mock treated control", "method": "In hypoxia circumstance, for verifying the effect of PEP1 to the level of HSP, MCF7 and HeLa cells were treated with 20 μM PEP1, and incubated in the hypoxia circumstance and the normoxia circumstance. By using BBL GasPak (Becton Dickinson) which lows the oxygen to non-detective level in 90 minutes by catalytic reaction, the anoxia circumstance was induced. The incubation time was in a range of 2 to 24 hours. As mentioned above, the cells were collected and immunoblotted by using α-HSP70, α-HSP90, α-HIF-1α, or α-GAPDH antibodies. The α-GAPDH, for the protein quantification, was used for the normalization of the amount of HSP70/90 by the amount of GAPDH.\nAfter treating the starvation for 2 hours by adding the OPTI-MEM media, same as the shown figure, the cells were treated by the PEP1 at the different concentrations, by the scrambled peptides, […] (1 μM) or KNK437 (1 μM). […] By using Bradford Protein Assay (Bio-Rad, USA), the protein concentration was quantified, and the samples were treated by SDS-PAGE and immunoblotting with α-HSP70 (sc-32239 and sc-66048, Santa Cruz, Calif., USA), α-HSP90 (ab1429, abcam, USA), α-GRP78 (sc-13968), α-HIF-1a (sc-10790) or α-GAPDH (sc-25778) antibodies. The immune reactive band was visualized by the intensive chemiluminescence kit (iNtRoN Biotechnology, INC, Korea), and analyzed by ImageQuant™ LAS-4000 (GE Healthcare Life Science, NJ, US)."}, "Tie2+ CD11b+ monocytes": {"tested_on": "Tie2+ CD11b+ monocytes", "assay": "Tie2+ monocyte recruitment in tumor (confocal immunofluorescence)", "assay_type": "in vivo, mouse", "details": "MC38 tumor mice, PEP1 50 μg/kg once per 2 days", "method": "(§1) 7 week-old BALB/c athymic mice (Nu/Nu) (10 mice per group; n=20, female, Orient Bio Co. Gyunggido, Korea) were divided into two groups randomly after the subcutaneous injection of murine colon carcinoma MC38 (5×10^5 cells/ml in 200 μl PBS per site). PEP1 (50 μg/kg in 100 μl 0.9% NaCl solution) or PBS were injected into the mice once per 2 days. When the size of tumor reaches 10 mm, the PEP1 and PBS were injected to the inside of tumor. The size of tumor was measured in once per 2 days, and the volume of tumor was calculated following equation; volume (mm3)=((width2×length)/2). All experiments were approved by the Institute for Experimental Animals (College of Medicine, Seoul National University at Seoul, Korea).\nThe sliced tumor section was fixed in 4% paraformaldehyde in room temperature during 15 minutes. It was rinsed by PBS 2 times, incubated in PBS with 0.25% Triton X-100 during 10 minutes, and rinsed by PBS 3 times again. After blocking the tissue in 1% BSA-PBST during 30 minutes, it was incubated with the mixture of the mouse anti-Tie2 (557039, BD Pharmigen) and the anti-CD11b (rat anti-CD11b antibodies, ab8878, abcam) antibodies in the 4° C. humidified chamber. […] For visualizing the cell nucleus, it was incubated with DAPI (Sigma Aldrich) during 1 minute and analyzed by the confocal microscope."}, "HSP70 [1]": {"tested_on": "HSP70", "assay": "HSP70 protein level by immunoblotting, serum-free media, 2 h treatment", "assay_type": "cell-based, human", "details": "for amount of HSP70, comparison with HSP inhibitors: 17-AAG 1 μM, KNK437 1 μM; for HSP70 level: increasing concentration, serum-free", "method": "Jurkat and MCF7 cells ([…]) were seeded and incubated for 12 hours. After treating the starvation for 2 hours by adding the OPTI-MEM media, same as the shown figure, the cells were treated by the PEP1 at the different concentrations, by the scrambled peptides, […] (1 μM) or KNK437 (1 μM). After the 2-hour incubation, the cells were collected and lysated by using cell lysis buffer (Thermo Scientific, IL, USA). By using Bradford Protein Assay (Bio-Rad, USA), the protein concentration was quantified, and the samples were treated by SDS-PAGE and immunoblotting with α-HSP70 (sc-32239 and sc-66048, Santa Cruz, Calif., USA), α-HSP90 (ab1429, abcam, USA), α-GRP78 (sc-13968), α-HIF-1a (sc-10790) or α-GAPDH (sc-25778) antibodies. The immune reactive band was visualized by the intensive chemiluminescence kit (iNtRoN Biotechnology, INC, Korea), and analyzed by ImageQuant™ LAS-4000 (GE Healthcare Life Science, NJ, US)."}, "HSP90": {"tested_on": "HSP90", "assay": "HSP90 in tumor sections (immunohistochemical staining)", "assay_type": "in vivo, mouse", "details": "MC38 tumor sections, PEP1 50 μg/kg", "method": "as §1\n(§2) Similar to the PCNA staining method, by using immunohistochemical staining, HSP70 and HSP90 proteins expression in tumor were evaluated. The antibodies to the heat shock proteins (HSP70; sc-7298, HSP90; ab1429) was used as the first antibodies. HSP70 and HSP90 proteins expression by tumors was evaluated by immunoblotting using tumor lysate. After freezing by liquid oxygen, the tumor was crashed by the mortar, and homogenized by extraction buffer (20 mM HEPES, pH7.5, 100 mM NaCl, 0.05% Triton X-100, 1 mM DTT, 0.5 mM sodium orthovanadate, 1 mM EDTA, 0.5 mM PMSF, 10 μg/ml aprotinin, 5 μg/ml leupeptin, 2 μg/ml pepstatin). […]"}, "[2]": {"tested_on": "Human umbilical vein endothelial cell induced by VEGF-A", "assay": "Vascular endothelial cell viability, VEGF-A stimulation", "assay_type": "cell-based", "details": "PEP1 0.05, 0.5, 5 μM, VEGF-A 10 ng/mL, 24 hours", "method": "The vascular endothelial cells were plated to a 6-well plate (BD Biosciences, Bedford, Mass., USA) of the 1×10^5 cells/well. The cells were synchronized to the G1/G0 phase by the basic EBM-2 media (Lonza) which has no serum and angiogenesis factors, treated by the PEP1 at each concentration (0.05, 0.5, 5 μM) and stimulated by the VEGF-A (10 ng/mL) for 24 hours, in order to observe the cell proliferation inhibition effect.\nFor detecting the cell proliferation, by using the trypan blue staining solution (Invitrogen, Carlsbad, Calif., USA), the cells were directly counted in the microscope (×100), and the cell viability was analyzed by using viability assay kit (Merck Millipore Inc.) with Muse™ analyzer."}, "HSP70 [3]": {"tested_on": "HSP70", "assay": "HSP70 in tumor lysates (immunoblotting)", "assay_type": "in vivo, mouse", "details": "all three PEP1 treated tumor samples", "method": "as §1, §2"}}, "data": [{"compound": "CC[C@H](C)[C@H](NC(=O)[C@H](Cc1ccccc1)NC(=O)[C@H](CCCNC(=N)N)NC(=O)[C@H](CC(C)C)NC(=O)[C@H](CCCNC(=N)N)NC(=O)[C@H](CO)NC(=O)[C@@H](NC(=O)[C@H](CC(C)C)NC(=O)[C@H](CC(C)C)NC(=O)[C@H](C)NC(=O)[C@@H]1CCCN1C(=O)[C@H](CCCNC(=N)N)NC(=O)[C@H](C)NC(=O)[C@@H](N)CCC(=O)O)[C@@H](C)O)C(=O)N1CCC[C@H]1C(=O)N[C@@H](CCCCN)C(=O)O", "note": "[PEP1, EARPALLTSRLRFIPK]", "values": [{"measurement": "expression of HIF-1α", "setting": "HIF-1α; HeLa cells", "result": "very decreased"}, {"measurement": "expression of HIF-1α", "setting": "HIF-1α; MCF7 cells", "result": "very decreased"}, {"measurement": "number of Tie2+ CD11b+ monocytes in tumor vs control mouse tumor", "setting": "Tie2+ CD11b+ monocytes", "result": "significantly lower"}, {"measurement": "decrease of HSP70", "setting": "HSP70 [1]; Jurkat cells, 5 μM", "result": "more than 50%"}, {"measurement": "amount of HSP70, comparison with HSP inhibitors", "setting": "HSP70 [1]; Jurkat cells, PEP1 5 μM", "result": "decreased"}, {"measurement": "HSP70 level", "setting": "HSP70 [1]; Jurkat cells", "result": "significantly decreased"}, {"measurement": "HSP70 decreased to, as compared with the control group", "setting": "HSP70 [1]; MCF7 cells, 20 μM", "result": 50, "unit": "%"}, {"measurement": "amount of HSP70, comparison with HSP inhibitors", "setting": "HSP70 [1]; MCF7 cells, PEP1 20 μM", "result": "decrease"}, {"measurement": "HSP70 level", "setting": "HSP70 [1]; MCF7 cells", "result": "significantly decreased"}, {"measurement": "HSP90 staining pattern vs PBS treated control", "setting": "HSP90", "result": "weaker staining pattern"}, {"measurement": "HSP90 positive stained part vs control", "setting": "HSP90; Leica Qwin quantification", "result": "very small"}, {"measurement": "cell survival rate", "setting": "[2]", "result": "did not affect"}, {"measurement": "HSP70 protein level in tumor", "setting": "HSP70 [3]", "result": "decreases"}]}]}
